The values below are quoted from earlier work in patent US10927398B2, “Compositions for CYP450 phenotyping using saliva samples” (Concordia University, Inc., priority 2015, dated 2021).

The conditions of the data set: Table of Exemplary Drugs, CYP3A4; cited from earlier work.

Regarding `CN(C)CCc1c[nH]c2ccc(CS(=O)(=O)N3CCCC3)cc12` [Almortriptan (Axert), Almortriptan], the “HALF-LIFE” value is 3.5 h.
